Among the data in PubChem BioAssay AID602124 (The Scripps Research Institute Molecular Screening Center, 2011) are inhibition values, retold here.

Protein sequences, listed by entry. Tags and fused reporters are not part of them.
UniProt P00519, whole entry, looked up: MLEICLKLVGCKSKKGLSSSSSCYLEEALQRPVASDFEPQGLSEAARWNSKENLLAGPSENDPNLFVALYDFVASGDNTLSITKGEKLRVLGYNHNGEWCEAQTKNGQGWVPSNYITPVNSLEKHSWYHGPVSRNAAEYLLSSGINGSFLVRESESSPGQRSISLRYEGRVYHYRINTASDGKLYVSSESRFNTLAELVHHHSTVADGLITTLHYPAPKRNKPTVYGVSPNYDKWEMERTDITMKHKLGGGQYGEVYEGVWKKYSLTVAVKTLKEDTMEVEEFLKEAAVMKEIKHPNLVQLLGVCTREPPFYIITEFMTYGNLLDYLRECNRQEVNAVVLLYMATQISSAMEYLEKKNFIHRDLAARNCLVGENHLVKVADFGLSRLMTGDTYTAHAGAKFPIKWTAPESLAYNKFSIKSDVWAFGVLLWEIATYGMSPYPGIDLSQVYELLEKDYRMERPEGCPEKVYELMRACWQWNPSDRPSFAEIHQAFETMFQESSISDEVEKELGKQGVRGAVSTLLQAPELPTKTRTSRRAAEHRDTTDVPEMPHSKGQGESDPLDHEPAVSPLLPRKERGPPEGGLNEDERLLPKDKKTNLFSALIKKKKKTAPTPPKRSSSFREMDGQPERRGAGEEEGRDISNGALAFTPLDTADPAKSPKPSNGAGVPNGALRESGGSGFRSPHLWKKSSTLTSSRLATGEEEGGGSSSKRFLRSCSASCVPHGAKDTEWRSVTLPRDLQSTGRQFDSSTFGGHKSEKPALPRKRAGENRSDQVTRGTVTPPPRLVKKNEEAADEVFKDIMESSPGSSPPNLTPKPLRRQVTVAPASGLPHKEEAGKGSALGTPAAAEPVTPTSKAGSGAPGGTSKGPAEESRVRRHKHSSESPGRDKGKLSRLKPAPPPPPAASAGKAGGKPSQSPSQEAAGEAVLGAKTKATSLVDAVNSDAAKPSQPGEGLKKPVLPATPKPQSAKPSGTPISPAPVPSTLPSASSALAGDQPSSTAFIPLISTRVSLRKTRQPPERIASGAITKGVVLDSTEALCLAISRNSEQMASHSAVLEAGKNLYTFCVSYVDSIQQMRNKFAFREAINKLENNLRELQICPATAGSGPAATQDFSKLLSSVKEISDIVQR
UniProt Q13671, whole entry, looked up: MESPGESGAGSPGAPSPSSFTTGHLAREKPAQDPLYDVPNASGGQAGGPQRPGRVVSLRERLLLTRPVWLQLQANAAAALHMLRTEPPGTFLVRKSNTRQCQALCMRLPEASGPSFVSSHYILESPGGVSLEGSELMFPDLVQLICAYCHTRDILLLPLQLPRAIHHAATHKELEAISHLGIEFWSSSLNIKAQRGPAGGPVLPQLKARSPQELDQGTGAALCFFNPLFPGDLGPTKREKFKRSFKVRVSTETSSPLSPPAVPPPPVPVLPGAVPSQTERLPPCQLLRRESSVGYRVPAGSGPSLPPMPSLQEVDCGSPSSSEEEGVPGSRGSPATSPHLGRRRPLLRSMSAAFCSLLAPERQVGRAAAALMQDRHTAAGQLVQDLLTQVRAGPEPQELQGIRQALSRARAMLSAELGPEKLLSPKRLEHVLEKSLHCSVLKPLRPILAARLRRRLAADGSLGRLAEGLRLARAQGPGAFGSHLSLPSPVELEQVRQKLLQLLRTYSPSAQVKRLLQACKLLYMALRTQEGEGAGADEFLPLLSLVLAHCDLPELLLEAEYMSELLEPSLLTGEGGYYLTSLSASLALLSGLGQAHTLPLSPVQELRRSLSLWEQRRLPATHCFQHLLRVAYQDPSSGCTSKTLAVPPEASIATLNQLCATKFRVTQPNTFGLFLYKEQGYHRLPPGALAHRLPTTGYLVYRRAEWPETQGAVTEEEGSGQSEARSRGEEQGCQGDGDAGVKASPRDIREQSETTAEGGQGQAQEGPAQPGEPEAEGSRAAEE

This is a selection; strong and weak results do not stand in their true shares. The source made the active and inactive calls. Rule as the data show it: active = inhibition above about 6.5%; inactive = the rest.

The assay addresses Tyrosine-protein kinase ABL1 (Homo sapiens) + Ras and Rab interactor 1 (Homo sapiens) (UniProt P00519+Q13671). In words: Rin1-Abl binding inhibitor retest, confirmation, biochemical, TR-FRET (AID 602124). Conditions: purified proteins, at 7.35 µM, active compounds read high. (Time-resolved FRET reads energy transfer from a long-lived donor to a nearby acceptor.)
Take `CCC(c1nnnn1C1CCCC1)N1CCC(n2c(=O)[nH]c3ccccc32)CC1` (stereo not given): the inhibition was active: 16.7%.

`O=c1[nH]c2ccccc2n1C1CCN(C(c2cc3ccccc3o2)c2nnnn2C2CCCCC2)CC1` (stereo not given): the inhibition was active: 12.9%.

Regarding `CCC(c1nnnn1C(C)(C)C)N1CCC(n2c(=O)[nH]c3ccccc32)CC1` (stereo not given), the inhibition is active: 15.4%.

On to `O=c1[nH]c2ccccc2n1C1CCN(C(c2cccs2)c2nnnn2C2CCCCC2)CC1` (stereo not given), for which the inhibition was active: 13%.

In the case of `CCC(c1nnnn1C1CCCCC1)N1CCC(n2c(=O)[nH]c3ccccc32)CC1` (stereo not given), the inhibition is active: 45%.

The inhibition is the percentage by which the read-out fell short of the control.
